For the assay, the system named is cholesterol biosynthesis in Hep G2 cells. Kind of assay: Test B (B-1): Inhibition of cholesterol biosynthesis in culture cells (Hep G2). In kind it is cell-based. To be noted: [2-14C]sodium acetate added at 0 hr (B-1), 4 hrs incubation, read-out: I50, inhibitory activities by Test B-1. As to the method:
Test B: Inhibition of cholesterol biosynthesis in culture cells
Hep G2 cells at over 5th passage were seeded to 12 well plates and incubated with Dulbecco's modified Eagle (DME) medium containing 10% of fetal bovine serum (FBS) at 37° C., 5% CO2 until cells were confluent for about 7 days. Cells were exposed to the DME medium containing 5% of lipoprotein deficient serum (LpDS) prepared by ultracentrifugation method for over 24 hours. Medium was changed to 0.5 ml of fresh 5% LpDS containing DME before assay and 10 μl of test compound solution dissolved in water or DMSO were added. 0.2 μCi of [2-^14 C]sodium acetate (20 μl) was added at 0 hr(B-1) or 4 hrs(B-2) after addition of compounds. After 4 hrs further incubation with [2-^14 C]sodium acetate, medium was removed and cells were washed with phosphate buffered saline(PBS) chilled at 4° C. Cells were scraped with rubber policeman and collected to tubes with PBS and digested with 0.2 ml of 0.5N KOH at 37° C. Aliquot of digestion was used for protein analysis and remaining was saponified with 1 ml of 15% EtOH-KOH at 75° C. for 1 hour. […] Counts were revised by cell protein and indicated with DPM/mg protein. Inhibitory activity of compounds was indicated with IC50.

For the compound `CC[C@H](C)C(=O)O[C@H]1C[C@H](O)C=C2C=C[C@H](C)[C@H](CC[C@@H](O)C[C@@H](O)CC(=O)O)[C@H]21` [CS-514], the IC50 came out at 350 nM.
